In the assay the target is 3',5'-cyclic-AMP phosphodiesterase 4A (Homo sapiens, UniProt P27815). Description: Inhibition of full length recombinant human N-terminal GST-tagged PDE4A1A expressed in baculovirus infected sf9 cells using FAM-cyclic-3',5-AMP as substrate after 1 hr by fluorescence polarization assay. The procedure, abridged:
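Fluorescence polarization assay run at 25 °C for 60 min in 40 mM MOPS pH 7.5, 0.5 mM EDTA, 15 mM MgCl2, 0.15 mg/mL BSA, 1 mM DTT, 0.05% ProClin 200. Contained 15 ng/mL PDE isoform and 100 nM FAM-cGMP or FAM-cAMP according to isoform, with 1% DMSO final. Binding agent added for 1 h at 25 °C; read at […] nm. IC50 from normalized nonlinear dose-response fit.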
For orientation: Polarisation of emitted light reports the rotation of a fluorescent probe.

Amino acid sequences for entries named in this document (tags omitted). A change or cut given only in a name is not applied to a line headed by its entry.
UniProt P27815: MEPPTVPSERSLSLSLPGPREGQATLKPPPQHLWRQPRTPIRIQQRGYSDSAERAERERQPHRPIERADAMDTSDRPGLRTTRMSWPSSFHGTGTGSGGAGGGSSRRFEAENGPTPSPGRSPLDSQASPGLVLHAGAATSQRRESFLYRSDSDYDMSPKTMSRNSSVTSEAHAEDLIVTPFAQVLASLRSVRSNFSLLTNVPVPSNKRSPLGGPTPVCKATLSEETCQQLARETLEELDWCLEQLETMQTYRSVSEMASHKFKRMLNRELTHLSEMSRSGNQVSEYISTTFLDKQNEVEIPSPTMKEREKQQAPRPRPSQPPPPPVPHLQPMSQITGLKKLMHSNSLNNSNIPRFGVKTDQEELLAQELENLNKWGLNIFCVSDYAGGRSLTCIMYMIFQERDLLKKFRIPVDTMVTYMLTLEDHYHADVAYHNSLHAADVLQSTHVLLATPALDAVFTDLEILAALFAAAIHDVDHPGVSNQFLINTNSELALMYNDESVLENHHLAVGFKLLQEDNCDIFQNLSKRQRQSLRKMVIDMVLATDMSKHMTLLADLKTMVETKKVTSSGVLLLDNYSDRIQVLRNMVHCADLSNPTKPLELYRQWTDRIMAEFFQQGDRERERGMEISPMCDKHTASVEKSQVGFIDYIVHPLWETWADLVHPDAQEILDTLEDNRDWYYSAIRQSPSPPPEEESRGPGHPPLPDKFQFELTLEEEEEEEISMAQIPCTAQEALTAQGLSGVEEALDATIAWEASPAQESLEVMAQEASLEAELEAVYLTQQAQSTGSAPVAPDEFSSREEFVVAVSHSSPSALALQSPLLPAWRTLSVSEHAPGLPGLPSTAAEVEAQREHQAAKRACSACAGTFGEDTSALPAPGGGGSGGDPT

Molecules are shown by their SMILES. pIC50: −log10 of the molar value.

For `CN1CC(=O)N2[C@H](c3ccc4c(c3)OCO4)c3[nH]c4ccccc4c3C[C@@H]2C1=O`, the negative logarithm of the IC50 (pIC50) is less than 5.00.

Broadly, the pIC50 is the negative decadic logarithm of the IC50, by convention in mol/L.
